Measured values from patent US11912686B2 (Gilead Sciences, Inc., priority 2020, dated 2024).

Protein sequences, listed by entry. Tags and fused reporters are not part of them.
UniProt Q92633, whole entry: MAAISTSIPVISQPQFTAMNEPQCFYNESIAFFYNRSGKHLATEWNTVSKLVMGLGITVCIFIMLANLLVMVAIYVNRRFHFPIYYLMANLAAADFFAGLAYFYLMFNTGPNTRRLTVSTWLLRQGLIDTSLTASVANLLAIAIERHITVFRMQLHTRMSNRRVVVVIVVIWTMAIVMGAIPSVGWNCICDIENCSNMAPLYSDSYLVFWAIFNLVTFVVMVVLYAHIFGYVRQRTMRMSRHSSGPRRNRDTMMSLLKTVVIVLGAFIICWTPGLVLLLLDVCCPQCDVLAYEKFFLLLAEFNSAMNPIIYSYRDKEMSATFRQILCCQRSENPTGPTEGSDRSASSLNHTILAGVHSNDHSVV

Target: human LPAR1 (Homo sapiens (Human), UniProt Q92633)
Assay: LPAR1 intracellular calcium mobilization assay (antagonist mode, FLIPR)
Settings: read-out: LPAR1 (EC50; nM), CHO-K1 EDG2 cells expressing human LPAR1, LPA 18:2 at EC80 (100 nM), test compound 0.5 nM to 10 μM
Description: In vitro LPAR1 activity was measured in an intracellular calcium mobilization assay.
CHO-K1 EDG2 cells (DiscoverX cat #93-0644C2) expressing human LPAR1 (NM_001401.3) were seeded in a total volume of 25 μL of Dulbecco's Modification of Eagle's Medium (DMEM) with 10% Fetal Bovine Serum, 1× PenStrepGlutamine, 300 μg/ml Hygromycin, and 800 μg/ml G418 into 384-well tissue culture plate (Grenier #781091) at 15,000 cells/well and incubated at 37° C. overnight. Prior to testing, 25 μL Calcium Loading Dye Component A (FLIPR Calcium 6 Assay Kit Molecular Device #R8190) and 2.5 mM Probenecid (Invitrogen #P36400, prepared fresh) in Hank's Balanced Salt Solution (Corning #21-023-CV), 20 mM HEPES (Corning #25-060-CI), 0.1% Bovine Serum Albumin (Sigma-Aldrich #A7906-500G) was add to the cells for 60 minutes at 37° C.
Agonist dose curves of LPA 18:2 (Avanti Polar Lipids cat #857138, 0.5 nM to 10 μM) were recorded to determine the LPA 18:2 EC80 for subsequent antagonist assays. […] Calcium mobilization was monitored for 5 min and 10 μL 6×LPA in HBSS/20 mM Hepes/0.1% bovine serum albumin (BSA) was added to the cells 5 seconds into the assay.
[…] . […] Antagonist activity was measured on a FLIPR Tetra. Calcium mobilization was monitored for 3.5 minutes and 10 μL 6× EC80 LPA in HBSS, 20 mM HEPES, and 0.1% BSA was added to the cells 5 seconds into the assay. […]

| Compound | EC50 |
| --- | --- |
| C[C@@H](OC(=O)Nc1c(-c2ccc(NC(=O)c3cncnc3)cn2)nnn1C)c1cc(F)cnc1F | 190 nM |
| C[C@@H](OC(=O)Nc1c(-c2ccc(NC(=O)c3ccnc(Cl)c3)cn2)nnn1C)c1cccnc1F | 27.3 nM |
